Experiment: Biodistribution of radiometal-DOTA-BBN conjugates in CF1 normal mice
Conditions: 1 hour post-injection

## CSCC[C@H](NC(=O)[C@H](CC(C)C)NC(=O)[C@H](Cc1cnc[nH]1)NC(=O)CNC(=O)[C@@H](NC(=O)[C@H](C)NC(=O)[C@H](Cc1c[nH]c2ccccc12)NC(=O)[C@H](CCC(N)=O)NC(=O)CCCCCCCNC(=O)CN1CCN(CC(=O)O)CCN(CC(=O)O)CCN(CC(=O)O)CC1)C(C)C)C(N)=O
  Avg % ID/gm, Spleen: 1.51 ± 0.41 % ID/gm
  Avg % ID/gm, Stomach: 1.02 ± 0.26 % ID/gm
